From patent US11607390B2, “Self-righting systems and related components and methods” (priority 2017, dated 2023)

Tested on: glucose-6-phosphate
Details: micropost tips 40% G6PD, 60% PEO 200k vs uncompressed
Text: To perform the activity assay on G6PD, an activity assay kit (Sigma Aldrich) was used which measures the amount of oxidized glucose-6-phosphate.

glucose-6-phosphate dehydrogenase
enzymatic activity after the manufacturing process: maintain their activity
